According to ChEMBL document CHEMBL4364301 (Eur J Med Chem, 2019):

Assays:
Assay type in all cases: functional
DU-145 = experiment: Antiproliferative activity against human DU145 cells assessed as reduction in cell growth incubated for 96 hrs by propidium iodide based 2D monolayer assay
How it was run: (§1)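 After 24 h recovery, compound in medium or medium alone (control wells) was added at 10 half-log concentrations from 0.0032 to 100 µM, in triplicate, with at most 0.3% DMSO. After 96 h, wells were PBS-washed, stained with 7 µg/ml PI and 0.1% Triton X-100, and fluorescence read at 530/620 nm. IC50 came from a 4-parameter fit, geometric mean.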

VCaP = experiment: Antiproliferative activity against human VCaP cells assessed as reduction in cell growth incubated for 96 hrs by propidium iodide based 2D monolayer assay
How it was run: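 VCaP cells in RPMI 1640 with 10% FCS at 37 °C, 5% CO2, seeded 4,000–20,000 cells/well and left 24 h before dosing. Compounds from DMSO stocks were diluted in half-log steps in medium, 10 concentrations 0.0032–100 μM, triplicate wells, max 0.3% DMSO. After 96 h, cells were washed, stained with 7 μg/ml propidium iodide plus 0.1% Triton X-100 for 1–2 h at room temperature, and fluorescence read at ex 530/em 620 nm.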

LNCaP = experiment: Antiproliferative activity against human LNCAP cells assessed as reduction in cell growth incubated for 96 hrs by propidium iodide based 2D monolayer assay; how it was run: as §1
CWR22R = experiment: Antiproliferative activity against human 22Rv1 cells assessed as reduction in cell growth incubated for 96 hrs by propidium iodide based 2D monolayer assay; how it was run: as §1

Measured: Activity

CC(O)(COc1cc(C(F)(F)F)cc(C(F)(F)F)c1)C(=O)Nc1cccc(C(F)(F)C(F)(F)F)c1 (racemic)
active: DU-145 = Dose-dependent effect | VCaP Dose-dependent effect | LNCaP Dose-dependent effect | CWR22R Dose-dependent effect

CC(O)(CS(=O)(=O)c1ccc(C(F)(F)F)cc1)C(=O)Nc1ccc(S(F)(F)(F)(F)F)cc1 (racemic)
active: DU-145 = Dose-dependent effect | VCaP Dose-dependent effect | LNCaP Dose-dependent effect | CWR22R Dose-dependent effect

CC(O)(CSc1ccccc1OC(F)(F)F)C(=O)Nc1ccc(S(F)(F)(F)(F)F)cc1 (racemic)
active: DU-145 = Dose-dependent effect | VCaP Dose-dependent effect | LNCaP Dose-dependent effect | CWR22R Dose-dependent effect

CC(O)(CSc1ccc(F)cc1)C(=O)Nc1cccc(S(F)(F)(F)(F)F)c1 (racemic)
active: DU-145 = Dose-dependent effect | VCaP Dose-dependent effect | LNCaP Dose-dependent effect | CWR22R Dose-dependent effect

CC(O)(CS(=O)(=O)c1ccc(OC(F)(F)F)cc1)C(=O)Nc1cccc(S(F)(F)(F)(F)F)c1 (racemic)
active: DU-145 = Dose-dependent effect | VCaP Dose-dependent effect | LNCaP Dose-dependent effect | CWR22R Dose-dependent effect

CC(O)(CS(=O)(=O)c1cccc(C(F)(F)F)c1)C(=O)Nc1ccc(S(F)(F)(F)(F)F)cc1 (racemic)
active: DU-145 = Dose-dependent effect | VCaP Dose-dependent effect | LNCaP Dose-dependent effect | CWR22R Dose-dependent effect

CC(O)(CSc1ccc(S(F)(F)(F)(F)F)cc1)C(=O)Nc1ccc(S(F)(F)(F)(F)F)cc1 (racemic)
active: DU-145 = Dose-dependent effect | VCaP Dose-dependent effect | LNCaP Dose-dependent effect | CWR22R Dose-dependent effect

CC(O)(CS(=O)(=O)c1cccc(C(F)(F)F)c1)C(=O)Nc1cccc(S(F)(F)(F)(F)F)c1 (racemic)
active: DU-145 = Dose-dependent effect | VCaP Dose-dependent effect | LNCaP Dose-dependent effect | CWR22R Dose-dependent effect

CC(O)(CSc1cc(C(F)(F)F)cc(C(F)(F)F)c1)C(=O)Nc1cccc(C(F)(F)C(F)(F)F)c1 (racemic)
active: DU-145 = Dose-dependent effect | VCaP Dose-dependent effect | LNCaP Dose-dependent effect | CWR22R Dose-dependent effect

CC(O)(COc1cccc(C(F)(F)C(F)(F)F)c1)C(=O)Nc1ccc(C(F)(F)F)cc1 (racemic)
active: DU-145 = Dose-dependent effect | VCaP Dose-dependent effect | LNCaP Dose-dependent effect | CWR22R Dose-dependent effect

CC(O)(COc1cccc(C(F)(F)C(F)(F)F)c1)C(=O)Nc1cc(C(F)(F)F)cc(C(F)(F)F)c1 (racemic)
active: DU-145 = Dose-dependent effect | VCaP Dose-dependent effect | LNCaP Dose-dependent effect | CWR22R Dose-dependent effect

CC(O)(CSc1cccc(S(F)(F)(F)(F)F)c1)C(=O)Nc1ccc([N+](=O)[O-])cc1C(F)(F)F (racemic)
active: DU-145 = Dose-dependent effect | VCaP Dose-dependent effect | LNCaP Dose-dependent effect | CWR22R Dose-dependent effect

CC(O)(CS(=O)(=O)c1cccc(S(F)(F)(F)(F)F)c1)C(=O)Nc1ccc([N+](=O)[O-])c(C(F)(F)F)c1 (racemic)
active: DU-145 = Dose-dependent effect | VCaP Dose-dependent effect | LNCaP Dose-dependent effect | CWR22R Dose-dependent effect

CC(O)(CSc1cc(C(F)(F)F)cc(C(F)(F)F)c1)C(=O)Nc1ccc(S(F)(F)(F)(F)F)cc1 (racemic)
active: DU-145 = Dose-dependent effect | VCaP Dose-dependent effect | LNCaP Dose-dependent effect | CWR22R Dose-dependent effect

CC(O)(COc1ccc(C#N)c(F)c1)C(=O)Nc1ccc(S(F)(F)(F)(F)F)cc1 (racemic)
active: DU-145 = Dose-dependent effect | VCaP Dose-dependent effect | LNCaP Dose-dependent effect | CWR22R Dose-dependent effect

CC1(C)C(=O)N(c2ccc(S(F)(F)(F)(F)F)cc2)C(=S)N1c1ccc(C(F)(F)F)cc1
active: DU-145 = Dose-dependent effect | VCaP Dose-dependent effect | LNCaP Dose-dependent effect | CWR22R Dose-dependent effect

CC1(C)C(=O)N(c2ccc([N+](=O)[O-])c(C(F)(F)F)c2)C(=S)N1c1cccc(S(F)(F)(F)(F)F)c1
active: DU-145 = Dose-dependent effect | VCaP Dose-dependent effect | LNCaP Dose-dependent effect | CWR22R Dose-dependent effect

CC1(C)C(=O)N(c2ccc([N+](=O)[O-])cc2C(F)(F)F)C(=S)N1c1cccc(S(F)(F)(F)(F)F)c1
active: DU-145 = Dose-dependent effect | VCaP Dose-dependent effect | LNCaP Dose-dependent effect | CWR22R Dose-dependent effect

CC(O)(CSc1cccc(OC(F)(F)F)c1)C(=O)Nc1cccc(S(F)(F)(F)(F)F)c1 (racemic)
active: DU-145 = Dose-dependent effect | VCaP Dose-dependent effect | LNCaP Dose-dependent effect | CWR22R Dose-dependent effect

CC(O)(CS(=O)(=O)c1cccc(S(F)(F)(F)(F)F)c1)C(=O)Nc1ccc(C#N)cc1C(F)(F)F (racemic)
active: DU-145 = Dose-dependent effect | VCaP Dose-dependent effect | LNCaP Dose-dependent effect | CWR22R Dose-dependent effect

CC(O)(CSc1cccc(S(F)(F)(F)(F)F)c1)C(=O)Nc1cccc(S(F)(F)(F)(F)F)c1 (racemic)
active: DU-145 = Dose-dependent effect | VCaP Dose-dependent effect | LNCaP Dose-dependent effect | CWR22R Dose-dependent effect

CC(O)(COc1ccc(S(F)(F)(F)(F)F)cc1)C(=O)Nc1ccc([N+](=O)[O-])cc1C(F)(F)F (racemic)
active: DU-145 = Dose-dependent effect | VCaP Dose-dependent effect | LNCaP Dose-dependent effect | CWR22R Dose-dependent effect

CC(O)(CSc1cccc(S(F)(F)(F)(F)F)c1)C(=O)Nc1ccc(C#N)cc1C(F)(F)F (racemic)
active: DU-145 = Dose-dependent effect | VCaP Dose-dependent effect | LNCaP Dose-dependent effect | CWR22R Dose-dependent effect

CC(O)(CS(=O)(=O)c1ccc(F)cc1)C(=O)Nc1cccc(S(F)(F)(F)(F)F)c1 (racemic)
active: DU-145 = Dose-dependent effect | VCaP Dose-dependent effect | LNCaP Dose-dependent effect | CWR22R Dose-dependent effect

CC(O)(CSc1ccc(C(F)(F)F)cc1)C(=O)Nc1cccc(S(F)(F)(F)(F)F)c1 (racemic)
active: DU-145 = Dose-dependent effect | VCaP Dose-dependent effect | LNCaP Dose-dependent effect | CWR22R Dose-dependent effect

CC(O)(CS(=O)(=O)c1cccc(S(F)(F)(F)(F)F)c1)C(=O)Nc1ccc([N+](=O)[O-])cc1C(F)(F)F (racemic)
active: DU-145 = Dose-dependent effect | VCaP Dose-dependent effect | LNCaP Dose-dependent effect | CWR22R Dose-dependent effect
